# miR-21 reporter = miR-21 reporter, rising signal. 340,000 tested, under 10 active. Potency, µM (highest dose often 38.3 µM), for the others: at the highest dose reporter change, positive = more light. HeLa miR-21 FLuc reporter, luciferase, 48 h. AID 2288; active = well fitted rising curve with a large enough effect; inconclusive = small, poorly fitted or top-dose-only effect; inactive = no such curve, though single readings can be large or run the other way;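 further: % of control where 0% means no effect; miR-21 action dims this reporter so a rising signal means less miR-21 action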
#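 Compounds were titrated across several concentrations (up to approximately 40 uM) and incubated 48 hours with HeLa miR-21-FLuc reporter cells (miR-21 target sequence downstream of FLuc, endogenous miR-21). Readout was firefly luciferase luminescence after lytic detection reagent.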
# Glioma ERSR ind = ER stress response induction in glioma | U87-MG GRP78 promoter luciferase reporter, 16 h | Potency, µM, for inactives: top-dose activation, actives largely listed as activators | actives 0.02% (n = 420,000); note: potency is the fitted concentration of half-maximal effect; series mostly up to about 76 µM; % of control where 0% means no effect; nearly all actives have a fitted effect of over 35% in size
#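 ERSR induction read as luciferase luminescence (Bright-Glo, 10 min at room temperature) in stably transfected human U87-MG glioma cells exposed to compounds for 16 h, using GRP78 as sensor.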
# Nrf2 block = Nrf2 pathway inhibition. A549 ARE-Fluc reporter, luciferase luminescence, 18-24 h. Potency, µM (series often up to 46 µM), for the others: at the top dose activity change, negative = inhibition, hits mostly inhibitors. actives 2.1% (n = 360,000). AID 504444; note: potency is the fitted concentration of half-maximal effect; % is set by controls: 0 for no effect and ±100 for the full control effect; nearly all actives have a fitted effect of over 60% in size
#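 Reporter: ARE-Fluc in A549. Exposure: 18-24 h, 37 °C, 5% CO2, 5% FBS OPTI-MEM. Readouts: fluorescent cytotoxicity (CellTiter-Fluor), then luminescent Nrf2 signal after BugLite.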
# Nrf2 activator = Nrf2 pathway activation; AREc32 ARE-luciferase reporter (MCF7-derived line), luminescence, 24 h; Potency, µM (titrated, usually from 46.1 µM), for inactives: at the top dose activation, hits mostly activators; actives 0.31% (n = 410,000); AID 624171; note: potency is the fitted concentration of half-maximal effect; % of control where 0% means no effect; nearly all actives have a fitted effect of over 65% in size
#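 ARE-driven firefly luciferase activity in AREc32 cells measured after a 24 hr compound exposure at 37 deg C, using Steady-Glo reagent and a 30 min room-temperature hold.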
# Mito fusion yeast = blocks mitochondrial division or promotes mitochondrial fusion | Potency, µM (titrated, usually from 46.1 µM), without a hit: at the highest dose growth rescue (activation), actives largely listed as activators | actives 0.23% (n = 320,000) | S. cerevisiae fusion-defective mutant growth rescue, CellTiterGlo 48 h; note: potency is the fitted concentration of half-maximal effect; % of control where 0% means no effect; nearly all actives have a fitted effect of over 45% in size
#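 Yeast fusion mutant, YPEG (non-fermentable carbon), compound, 48 h at 37C non-permissive; CellTiterGlo added, 10 min RT, luminescence read. Rescued growth = division inhibition.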
# A549 tox-1 = A549 cytotoxicity, counter-screen for Nrf2 inhibitors; A549 ARE-Fluc cells, CellTiter-Fluor viability, 18-24 h; Potency, µM (top dose mostly 46 µM), for the others: at the highest dose activity change, negative = cytotoxicity, hits mostly inhibitors; actives 0.16% (n = 390,000); AID 504648; note: potency is the fitted concentration of half-maximal effect; % is set by controls: 0 for no effect and ±100 for the full control effect
#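 A549 ARE-Fluc cells in 5% FBS OPTI-MEM, 5000 cells/well, rested 2 h then exposed to compounds in concentration-response for 18-24 h at 37 °C. Viability by CellTiter-Fluor fluorescence (Ex 405/Em 525) after 30 min; luciferase luminescence (BugLite, 15 min, RT) read afterwards.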
# FLuc counter 3 = blocks purified firefly luciferase in Nrf2 counterscreen; shares compounds with Nrf2 block; actives 4% (n = 1,400); AID 720522; purified firefly luciferase, luminescence inhibition; Potency, µM (doses to about 57.5 µM), for inactives: at the highest dose activity change, negative = inhibition, usual class: inhibitors; note: potency is the fitted concentration of half-maximal effect; % is set by controls: 0 for no effect and ±100 for the full control effect; nearly all actives have a fitted effect of over 65% in size
# A549 tox-2 = toxic to A549 ARE-Fluc cells in Nrf2 counterscreen; shares compounds with Nrf2 block; A549 ARE-Fluc cells, cytotoxicity counterscreen; Potency, µM (series often up to 46.1 µM), without a hit: at the top dose activity change, negative = cytotoxicity, actives largely listed as inhibitors; actives 2% (n = 1,400); AID 720523;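 note: potency is the fitted concentration of half-maximal effect; cells exposed to compounds for 18 to 24 hours; % is set by controls: 0 for no effect and ±100 for the full control effect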
# ARE-Fluc inh = Nrf2 inhibition confirmed, A549 ARE-luciferase; shares compounds with Nrf2 block; A549 ARE-firefly luciferase reporter, luminescence; Potency, µM (top dose mostly 46.1 µM), for inactives: at the highest dose activity change, negative = inhibition, hits mostly inhibitors; actives 74% (n = 1,400); AID 720524; note: potency is the fitted concentration of half-maximal effect; % is set by controls: 0 for no effect and ±100 for the full control effect; nearly all actives have a fitted effect of over 65% in size
# Starred values were filed as active, the others as inactive; ? = inconclusive; / = no result shown; [ ] = dose if it differs, or a comment. Shown are actives, neighbours in structure and some others; about 2.3% of the full set was active somewhere. Calls come from the whole dose curve; as a rule, active = well fitted curve in the direction sought with a large enough effect; inconclusive = small, poorly fitted or top-dose-only effect, or another doubt; inactive = no such curve, though single readings can be large; an effect the other way counts as inactive or inconclusive.
SMILES,miR-21 reporter,Glioma ERSR ind,Nrf2 block,Nrf2 activator,Mito fusion yeast,A549 tox-1,FLuc counter 3,A549 tox-2,ARE-Fluc inh
CN(CCc1ccccn1)C(=O)CCC1CCCN(C(=O)CN2CCCCCC2)C1 (configuration not stated),0%,-3%,2%,0%,-1%,-3%,/,/,/
O=C(N/N=C/c1c(Cl)cccc1Cl)c1ccccc1F,-22%,3%,?,5µM*,/,7%,/,/,/
O=C(N/N=C/c1c(Cl)cccc1Cl)c1ccc(F)cc1,-23%,-2%,/,?,-2%,-1%,/,/,/
CCCCOC(=O)c1ccc(N)cc1,-20%,-4%,8%,0%,11µM*,-7%,/,/,/
CCCCCCOC(=O)c1ccc(N)cc1,-53%,2%,4%,1%,-17%,1%,/,/,/
Cc1cc(C)c(S(=O)(=O)N2CCCOC2CNC(=O)C(=O)NCc2cccnc2)c(C)c1 (configuration not stated),-2%,-1%,7%,0%,-5%,10%,/,/,/
CC(C)Cn1cnc2c(c(-c3ccccc3)c(-c3ccccc3)n2Cc2ccco2)c1=N,?,-15%,-20%,3%,12%,23µM*,/,/,/
N=c1c2c(-c3ccccc3)c(-c3ccccc3)n(Cc3ccco3)c2ncn1Cc1ccccc1,?,-11%,12%,0%,3%,5%,/,/,/
COc1ccc(CNC(=O)C2CCN(c3cc(C(=O)Nc4cccc(OC)c4)ccn3)CC2)cc1,8%,0%,?,3%,-54%,-1%,/,/,/
CCOC(=O)N/N=C1/C[C@@H](O)[C@@H](O)[C@@H]2[C@@H]3C(=O)N(CC)C(=O)[C@H]3CC[C@@H]12,/,-4%,/,/,/,/,/,/,/
COc1ccc(S(=O)(=O)n2ccc(-c3ccc4c(c3)CCC(C)(C)O4)n2)cc1,-17%,1%,13µM*,0%,-4%,0%,/,/,/
O=c1cc(-c2ccccc2Cl)oc2c([N+](=O)[O-])c(O)cc(O)c12,?,-6%,13µM*,-3%,?,?,/,/,/

# Five of these compounds, reformatted:
Structure	miR-21 reporter	Glioma ERSR ind	Nrf2 block	Nrf2 activator	Mito fusion yeast	A549 tox-1	FLuc counter 3	A549 tox-2	ARE-Fluc inh
O=C(N/N=C/c1c(Cl)cccc1Cl)c1ccc(F)cc1	-23%	-2%	/	?	-2%	-1%	/	/	/
CCCCOC(=O)c1ccc(N)cc1	-20%	-4%	8%	0%	11µM*	-7%	/	/	/
CCCCCCOC(=O)c1ccc(N)cc1	-53%	2%	4%	1%	-17%	1%	/	/	/
Cc1cc(C)c(S(=O)(=O)N2CCCOC2CNC(=O)C(=O)NCc2cccnc2)c(C)c1 (configuration not stated)	-2%	-1%	7%	0%	-5%	10%	/	/	/
CC(C)Cn1cnc2c(c(-c3ccccc3)c(-c3ccccc3)n2Cc2ccco2)c1=N	?	-15%	-20%	3%	12%	23µM*	/	/	/

# The results go on.
SMILES,miR-21 reporter,Glioma ERSR ind,Nrf2 block,Nrf2 activator,Mito fusion yeast,A549 tox-1,FLuc counter 3,A549 tox-2,ARE-Fluc inh
O=c1cc(-c2ccccc2Cl)oc2ccc([N+](=O)[O-])c(O)c12,-11%,-5%,?,0%,?,?,/,/,/
Cc1cc2sc3ccc(C#CC4(O)CCCCC4)cc3c(=O)c2cc1C,/,-11%,0.21µM*,-1%,/,-4%,0.085µM*,-17%,9.2µM*
Cn1c2ccccc2c(=O)c2cc(C#CC3(O)CCCCC3)ccc21,-17%,-10%,?,0%,0%,4%,/,/,/
CCc1ccc(Cn2nnc(C(=O)NCc3ccccc3OC)c2N)cc1,-10%,-3%,14%,0%,-4%,5%,/,/,/
Cc1cc(C)n(-c2ccc(C(=O)Nc3nnc(C4CC4)s3)cc2)n1,3%,-1%,?,0%,0%,2%,/,/,/
CN(C)CCN1C(=O)c2cccc3cc([N+](=O)[O-])cc(c23)C1=O,/,-14%,1.6µM*,-2%,/,8.2µM*,1%,?,2.6µM*
C=CCNC(=O)C1CCN(c2nc(C)cc(-c3ccccc3)n2)CC1,-42%,6%,?,1%,1%,-6%[1.84 µM],/,/,/
COc1ccc(C(=O)OCC(=O)Nc2cccc(S(=O)(=O)NC3=NCCCCC3)c2)cc1[N+](=O)[O-],/,-2%,18%,0%,/,-4%,/,/,/
C[n+]1ccccc1N1CCN(c2ccccc2Cl)CC1,5%,-6%,3.3µM*,-1%,-2%,-3%,3%,-12%,6.5µM*
COc1ccc(C(=S)N2CCN(c3ccccc3Cl)CC2)cc1OC,-1%,-5%,-16%,-1%,18%,-3%,/,/,/
COc1ccc(N(C(C)C(=O)N2CCC(Cc3ccccc3)CC2)S(C)(=O)=O)cc1 (configuration not stated),7%,2%,6.5µM*,0%,1%,-20%,3%,-8%,18µM*
CCN(CC)S(=O)(=O)c1ccc(/C=C/C(=O)Nc2ccc(Br)cc2F)cc1,13%,-4%,9.2µM*,4%,-4%,-3%,-9%,-2%,4.6µM*
CCN(CC)S(=O)(=O)c1ccc(/C=C/C(=O)Nc2ccc(F)c(F)c2F)cc1,17%,2%,?,6%,0%,-4%,-10%,-5%,?
CCN(CC)S(=O)(=O)c1ccc(/C=C/C(=O)Nc2ccc(F)cc2F)cc1,-2%,5%,?,3%,0%,-3%,/,/,/
CC(C)Sc1cc(N2CCCC2)nc(-c2ccc(F)cc2)n1,-4%,-2%,5%,0%,2%,-3%,/,/,/
O=C(NCc1ccncc1)C(=O)N/N=C/c1ccc(OCc2ccccc2)cc1,-7%,3%,-6%,4%,18%,-2%,/,/,/
O=NN(CCc1ccncc1)c1ccc(OCc2ccccc2)cc1,13%,4%,6.5µM*,4%,-10%,-19%,-28%,-3%,5.8µM*
Cc1cc(C)nc(SCc2ccc(C(=O)NNC(=O)Nc3cccc(Cl)c3)cc2)n1,20%,-15%,9.2µM*,-3%,3%,?,-23%,?,15µM*
COc1ccc(C(=O)Nc2ccc(S(=O)(=O)N3CCOCC3)cc2)cc1,/,3%,-17%,-1%,/,-4%,/,/,/
COc1ccc(C(=O)Nc2ccc(Cl)c(S(=O)(=O)N3CCOCC3)c2)cc1,/,-4%,9.2µM*,3%,/,-14%,21µM*,-12%,/
CC(=O)c1ccc(OCCCC(=O)Nc2ccc(Cl)c(S(=O)(=O)N3CCOCC3)c2)cc1,/,-2%,5.2µM*,4%,/,-15%,-13%,-2%,7.3µM*
Cc1ccc(OCCCC(=O)Nc2ccc(Cl)c(S(=O)(=O)N3CCOCC3)c2)cc1,/,-6%,?,3%,2%,-13%,/,/,/
Cc1ccc(-c2cc[n+](Cc3ccccc3)cc2)cc1,?,-5%,7.3µM*,-1%,3%,-8%,1%,-2%,9.2µM*
Cc1cc[n+](Cc2ccc([N+](=O)[O-])cc2)cc1,-12%,9%,?,0%,-3%,-9%,/,/,/

# Screens (PubChem BioAssay)
